Results taken from US20240016245A1, “ANTIMICROBIAL FACEMASK” (BMG (British Medical Group) Limited, priority 2020, published 2024).

Assay: Compatibility of surfactants with copper sulfate solutions for coating fabric
Format: physicochemical

## CCCCCCCC/C=C\CCCCCCCC[N+](C)(C)[O-] [N,N-dimethyloleyl N-oxide]
  precipitation from copper sulfate solutions / solution suitable for coating: causing precipitation
